Compounds with a hit are over-represented: about 1.5% of the library has one in this group of screens.
eIF4H inh – inhibitors of RNA binding by human eIF4H; eIF4H fluorescence polarization binding assay; actives 0.94% (n = 290,000); inhibition, % at 35 µM; AID 2012; Q15056;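 note: calls also rest on retests at 20 µM and on dose response follow-up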
MLLE-PAM2 inh – inhibitors of microRNA-mediated deadenylation, human PABP1 MLLE binding; P11940; GST-MLLE / FITC-PAM2 fluorescence polarization; inhibition, % at 20 µM; actives 0.36% (n = 360,000); in the data active = inhibition above about 35%, passing the limit was not always enough;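 note: plate controls were DMSO wells with GST-MLLE for no effect and wells lacking GST-MLLE protein for full effect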
Yeast UUG start-1 – modulators of start codon recognition fidelity in yeast. S. cerevisiae UUG-firefly luciferase reporter, luminescence/redox ratio. activity score, % at 18.7 µM. 0.13% of 350,000 active. AID 602363;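 active = replicate mean at a twofold rise or more, about +100% in these data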;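 also: firefly luciferase made from a UUG start codon reports start codon fidelity; reporter light over untreated wells divided by growth signal over untreated wells; some hits fall short of that in this replicate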
PABP polyA inh – blocks human PABP binding to poly(A) RNA; P11940; fluorescence polarization; calls only at 35 µM; actives 1% (n = 290,000); AID 2014;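 note: calls also rest on retests at 20 µM and on dose response follow-up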
Pemphigus Ab inh – blocks pemphigus antibody binding to human desmoglein-3 | P32926 | DSG3-coupled beads, scFv-anti-DSG3-GFP binding, flow cytometry; hits give low values | binding (percent of control), % at 10 µM | actives 0.48% (n = 310,000);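 active = binding more than 3 SD below its plate's average and above zero; inconclusive = below that plate limit but binding exactly zero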;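 note: hits lower antibody fragment binding to DSG3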
Yeast UUG start-2 – alters UUG start codon use in yeast | shares compounds with Yeast UUG start-1 | S. cerevisiae UUG-start firefly luciferase, luminescence, 4 h; 100% means double the DMSO signal | activation, % at 38 µM | 540 tested, under 10 active | AID 652061;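 active = signal increase whose fitted curve reaches an absolute level of 40 at a concentration under 10 µM; inactive = activity opposite to the expected increase, or the rest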
Numbers without * were called inactive; i = inactive; ? = inconclusive; · = no result given; ! = repeats disagree. Unless noted, the rule behind the calls is not given here.

SMILES	eIF4H inh	MLLE-PAM2 inh	Yeast UUG start-1	PABP polyA inh	Pemphigus Ab inh	Yeast UUG start-2
Cc1ccc(S(=O)(=O)N(C)C[C@H]2OCCCC[C@@H](C)Oc3ccc(NS(=O)(=O)c4cn(C)cn4)cc3C(=O)N([C@H](C)CO)C[C@H]2C)cc1	·	·	17.0	·	·	·
CC(C)n1cc(C(=O)c2ccccc2O)cc(C#N)c1=O	-4.0	2.1	229.8*	i	·	8.0
CN(C)CCCN1C(=O)[C@@]2(Cc3ccccc31)c1ccccc1C(=O)N(Cc1ccccc1C(F)(F)F)[C@H]2c1ccc(CO)cc1	·	·	172.6*	·	·	i
COCCCN1C(=O)[C@@]2(Cc3ccccc31)c1ccccc1C(=O)N(Cc1ccccc1)[C@H]2c1ccc(CO)cc1	·	·	169.5*	·	·	i
O=C(Cc1ccccc1)NC(NNc1ccccc1)(C(F)(F)F)C(F)(F)F	-7.7	0.0	480.8*	i	110.8	9.0
O=C(CSc1nnc(-c2ccncc2)n1CCc1ccccc1)N1CCCC1	-4.8	·	·	i	·	·
NC(=O)CSc1nnc(-c2ccncc2)n1CCc1ccccc1	9.9	-8.1	173.1*	i	94.6	-1.9
O=C(CC1CC1)Nc1ccc2c(c1)[C@H]1C[C@@H](CC(=O)N3CCOCC3)O[C@H](CO)[C@H]1O2	·	·	3.1	·	·	·
NC(=O)[C@H]1[C@@H]2C(=O)O[C@@H](c3ccccc3)[C@@H](c3ccccc3)N2[C@@H](c2ccccc2OCCO)[C@]12C(=O)Nc1ccc(C#CC3(O)CCCCCC3)cc12	·	·	20.9	·	·	·
COc1cc(OC)cc(C(=O)Nc2cccc(NC(=O)c3cccs3)c2)c1	·	4.9	123.8*	·	98.2	18.3

One compound at a time, from the list above. Order of screens: eIF4H inh | MLLE-PAM2 inh | Yeast UUG start-1 | PABP polyA inh | Pemphigus Ab inh | Yeast UUG start-2
Shown for O=C(Cc1ccccc1)NC(NNc1ccccc1)(C(F)(F)F)C(F)(F)F : -7.7 | 0.0 | 480.8* | i | 110.8 | 9.0
Shown for NC(=O)CSc1nnc(-c2ccncc2)n1CCc1ccccc1 : 9.9 | -8.1 | 173.1* | i | 94.6 | -1.9
Shown for CN(C)CCCN1C(=O)[C@@]2(Cc3ccccc31)c1ccccc1C(=O)N(Cc1ccccc1C(F)(F)F)[C@H]2c1ccc(CO)cc1 : · | · | 172.6* | · | · | i
Shown for O=C(CSc1nnc(-c2ccncc2)n1CCc1ccccc1)N1CCCC1 : -4.8 | · | · | i | · | ·
Shown for COCCCN1C(=O)[C@@]2(Cc3ccccc31)c1ccccc1C(=O)N(Cc1ccccc1)[C@H]2c1ccc(CO)cc1 : · | · | 169.5* | · | · | i

(cont.)
SMILES	eIF4H inh	MLLE-PAM2 inh	Yeast UUG start-1	PABP polyA inh	Pemphigus Ab inh	Yeast UUG start-2
CCN(CC)CC#CC(OC)(c1ccccc1)c1ccccc1	-5.6	11.7	·	i	94.3	-0.2
NS(=O)(=O)c1ccc(CCNC(=O)c2ccccc2OCc2ccc(F)cc2)cc1	-6.8	-24.9	-9.2	i	113.3	·
CCOc1ccccc1C(=O)NCC(=O)OCC(=O)NCCc1ccc(S(N)(=O)=O)cc1	3.7	2.8	555.4*	i	112.8	1.4
O=C(Cc1c[nH]c2ccccc12)N1CCc2ccccc21	-1.2	-21.6	344.1*	i	97.3	-1.2
O=C(CSc1c[nH]c2ccccc12)N1CCCc2ccccc21	-2.7	29.2	-4.9	i	92.3	·
COc1ccccc1CC(=O)OC(C)C(=O)Nc1ccc(S(=O)(=O)N2CCCCC2)cc1 (configuration not stated)	·	1.6	-1.7	·	94.3	-3.2
COC(=O)Nc1ccc(S(=O)(=O)N2CCC(C)CC2)cc1	-4.9	-9.0	3.7	i	93.8	·
COC(=O)Nc1ccc(S(=O)(=O)N2CCC(Cc3ccccc3)CC2)cc1	7.0	9.8	461.7*	i	?	-1.8
COC(=O)c1ccccc1NC(=O)CNC(=O)c1ccc(OC)cc1	15.2	16.9	264.2*	i	96.1	-10.5
COc1ccc(C(=O)Nc2ccccc2C(N)=O)cc1	5.3	-8.9	-17.2	i	105.1	·
Fc1cccc(C2NN=C(c3ccccc3)S2)c1 (configuration not stated)	-5.7	8.5	267.4*	i	87.2	-13.2
Cc1ccc(C2=NNC(c3cccc(F)c3)S2)cc1 (configuration not stated)	0.6	32.8	·	i	96.1	·
Cc1ccc(-c2nc3ccc(C)cn3c2Cc2ccsc2)cc1	·	7.8	-1.3	·	·	·
Cc1ccc2nc(C(C)(C)C)c(Cc3ccsc3)n2c1	·	-30.3	153.3*	·	·	5.6
O=c1c2c(n3cnnc3n1-c1ccccc1)-c1ccccc1CC21CCCCC1	-17.0	2.9	active	i	103.3	-9.5
O=C(CN1CCOCC1)NCC[C@H]1CC[C@H](NC(=O)Nc2ccc(F)cc2)[C@H](CO)O1	·	·	184.4*	·	·	i
O=C(CN1CCOCC1)NCC[C@@H]1CC[C@H](NC(=O)Nc2ccc(Cl)cc2)[C@@H](CO)O1	·	·	119.4*	·	·	i
O=C(c1cccnc1)N1C[C@@H]2[C@H](c3ccccc31)[C@@H](CO)N2C(=O)C1CCOCC1	·	·	116.7*	·	·	i
O=C(c1cccnc1)N1C[C@@H]2[C@H](c3ccccc31)[C@H](CO)N2C(=O)C1CC1	·	·	115.5*	·	·	i
Cc1ccc(S(=O)(=O)Nc2ccc3c(c2)C(=O)N([C@@H](C)CO)C[C@H](C)[C@H](CN(C)S(=O)(=O)c2cn(C)cn2)O3)cc1	·	·	3.7	·	·	·
C[C@@H]1CN([C@@H](C)CO)C(=O)c2cccc(NC(=O)Nc3ccc(F)cc3)c2O[C@@H]1CN(C)C(=O)Nc1ccc(F)cc1	·	·	3.5	·	·	·
Cc1cc(C)c(S(=O)(=O)N2CCN(S(=O)(=O)N3CCC(C)CC3)CC2)c(C)c1	-3.3	22.2	active	i	115.7	9.7
CC(C)c1cn(CC[C@H]2CC[C@H](NS(=O)(=O)Cc3ccccc3)[C@@H](CO)O2)nn1	·	·	-1.2	·	·	·
C[C@H]1CN([C@@H](C)CO)S(=O)(=O)c2ccc(C#CCC3CCCC3)cc2O[C@@H]1CN(C)C(=O)CN(C)C	·	·	32.5	·	·	·
CNC[C@@H]1Oc2cc(C#CC3CCCCC3)ccc2S(=O)(=O)N([C@@H](C)CO)C[C@@H]1C	·	·	0.8	·	·	·
C[C@@H]1CN([C@H](C)CO)S(=O)(=O)c2ccc(C#CCC3CCCC3)cc2O[C@@H]1CN(C)C(=O)c1cnccn1	·	·	2.4	·	·	·
C[C@@H]1CN([C@@H](C)CO)S(=O)(=O)c2ccc(C#CCC3CCCC3)cc2O[C@@H]1CN(C)Cc1ccc(C(=O)O)cc1	·	·	5.8	·	·	·
C[C@@H]1CN([C@H](C)CO)S(=O)(=O)c2ccc(C#CCC3CCCC3)cc2O[C@H]1CN(C)C(=O)CN(C)C	·	·	111.8*	·	·	i
C[C@H](CO)N1C[C@H](C)[C@@H](CN(C)C(=O)c2cnccn2)Oc2cc(C#CCC3CCCC3)ccc2S1(=O)=O	·	-73.1	120.8*!	·	102.2	-7.2
CNC[C@H]1Oc2cc(C#CC3CCCCC3)ccc2S(=O)(=O)N([C@H](C)CO)C[C@@H]1C	·	·	160.5*	·	·	i
C[C@H](CO)N1C[C@H](C)[C@H](CN(C)Cc2ccc(C(=O)O)cc2)Oc2cc(C#CCC3CCCC3)ccc2S1(=O)=O	·	·	182.0*	·	·	i
O=C(NCc1ccc(F)cc1)[C@H]1C[C@H]2C(=O)N3CCC[C@H]3C(=O)N2[C@H]1c1cccc(OCCO)c1	·	·	10.2	·	·	·
CO[C@@H]1CN(C)C(=O)c2cc(NC(=O)C3CC3)ccc2OC[C@H](C)N(CC2CCOCC2)C[C@@H]1C	·	·	-7.4	·	·	·
O=C(Nc1ccccc1)/C(=C/c1ccccc1)c1ccccc1	6.0	2.9	-14.5	i	·	·
Cc1ccccc1NC(=O)/C(=C/c1ccccc1)c1ccccc1	-8.1	1.0	102.1*	i	100.8	-1.1
O=C(N[C@H]1c2ccccc2C[C@H]1O)C1=C[C@H](c2coc3ccccc3c2=O)C[C@H](OCCCCO)O1	·	·	16.0	·	·	·
CCCNC(=O)C[C@@H]1CC[C@H]2[C@@H](COC[C@H](O)CN2Cc2cccc(F)c2)O1	·	·	5.5	·	·	·
CCCNC(=O)C[C@@H]1CC[C@@H]2[C@H](COC[C@@H](O)CN2Cc2cccc(F)c2)O1	·	·	106.7*	·	·	i

Screening results as filed in PubChem BioAssay.
